From patent US7211424B1, “Mammalian Subtilisin/kexin isozyme SKI-1: a proprotein convertase with a unique cleavage specificity” (Institut de Recherches Cliniques de Montreal, priority 1999, dated 2007)

T1: BTMD-SKI-1 (Homo sapiens, UniProt Q14703)
T1 sequence (Q14703 187-997 limits assumed): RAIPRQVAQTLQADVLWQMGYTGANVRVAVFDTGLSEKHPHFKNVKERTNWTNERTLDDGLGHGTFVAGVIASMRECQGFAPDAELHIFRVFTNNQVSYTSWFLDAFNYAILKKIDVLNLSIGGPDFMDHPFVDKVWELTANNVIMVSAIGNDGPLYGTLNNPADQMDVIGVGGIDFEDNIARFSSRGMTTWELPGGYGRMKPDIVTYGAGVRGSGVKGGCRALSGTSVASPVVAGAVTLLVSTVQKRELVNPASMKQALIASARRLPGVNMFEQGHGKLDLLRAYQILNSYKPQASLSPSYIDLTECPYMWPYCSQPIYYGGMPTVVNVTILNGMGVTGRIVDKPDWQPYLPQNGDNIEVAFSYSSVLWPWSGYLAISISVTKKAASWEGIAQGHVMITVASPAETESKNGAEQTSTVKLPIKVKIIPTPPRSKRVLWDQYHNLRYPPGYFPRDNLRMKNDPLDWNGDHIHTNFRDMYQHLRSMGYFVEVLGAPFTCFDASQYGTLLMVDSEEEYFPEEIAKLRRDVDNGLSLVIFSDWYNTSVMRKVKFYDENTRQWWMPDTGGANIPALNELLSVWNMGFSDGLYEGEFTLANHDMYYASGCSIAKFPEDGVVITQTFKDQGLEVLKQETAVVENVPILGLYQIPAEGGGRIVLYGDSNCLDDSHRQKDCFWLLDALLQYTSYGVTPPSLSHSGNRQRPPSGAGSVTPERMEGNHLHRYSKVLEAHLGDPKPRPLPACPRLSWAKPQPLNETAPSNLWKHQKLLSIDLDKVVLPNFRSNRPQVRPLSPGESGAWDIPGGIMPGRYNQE
T1 sequence (Q14703 17-137 partner limits assumed): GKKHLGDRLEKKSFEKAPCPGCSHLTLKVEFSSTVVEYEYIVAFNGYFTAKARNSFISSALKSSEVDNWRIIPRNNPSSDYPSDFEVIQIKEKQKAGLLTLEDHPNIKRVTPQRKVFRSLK

T2: BTMD-SKI-1 (human, UniProt Q14703 187-997)
T2 construct: The construct encodes aa 1-997 plus hexa-His; It was secreted from VV-infected BSC40 or LoVo cells and used as concentrated medium or after metal chelation purification; The secreted enzyme stays associated with the ~14 kDa prosegment fragment; also called bSKI-1; BTMD-hSKI-1
T2 sequence: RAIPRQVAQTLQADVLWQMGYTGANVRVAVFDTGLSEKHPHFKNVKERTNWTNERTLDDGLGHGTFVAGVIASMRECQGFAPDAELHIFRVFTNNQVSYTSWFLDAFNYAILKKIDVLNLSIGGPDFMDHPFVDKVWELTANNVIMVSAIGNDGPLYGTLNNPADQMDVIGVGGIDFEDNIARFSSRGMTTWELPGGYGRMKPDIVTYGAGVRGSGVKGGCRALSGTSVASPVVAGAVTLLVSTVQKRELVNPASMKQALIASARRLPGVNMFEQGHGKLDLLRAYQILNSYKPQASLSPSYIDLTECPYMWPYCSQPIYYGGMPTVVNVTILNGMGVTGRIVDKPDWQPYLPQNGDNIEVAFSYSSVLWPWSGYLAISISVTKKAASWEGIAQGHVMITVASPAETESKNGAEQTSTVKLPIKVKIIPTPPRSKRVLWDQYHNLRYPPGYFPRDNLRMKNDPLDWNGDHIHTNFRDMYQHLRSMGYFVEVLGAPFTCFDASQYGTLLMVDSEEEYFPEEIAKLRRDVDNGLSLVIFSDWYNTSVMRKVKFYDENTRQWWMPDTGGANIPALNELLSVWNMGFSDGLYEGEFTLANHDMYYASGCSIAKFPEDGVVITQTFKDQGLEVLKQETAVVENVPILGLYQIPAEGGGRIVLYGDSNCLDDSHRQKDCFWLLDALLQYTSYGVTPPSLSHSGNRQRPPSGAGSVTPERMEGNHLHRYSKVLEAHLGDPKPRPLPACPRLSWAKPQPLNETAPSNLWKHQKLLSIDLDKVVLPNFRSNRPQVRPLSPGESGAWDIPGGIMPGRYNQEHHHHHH


Columns and labels:
BTMD-SKI-1 [1] = target: T1, BTMD-SKI-1; type: biochemical
BTMD-SKI-1 [2] = target: T2, BTMD-SKI-1; assay: Ki(app) from Dixon plots; inhibition of peptide IV hydrolysis by BTMD-SKI-1 medium (RP-HPLC), prosegment preincubated with the enzyme for 30 min

Molecule | Hydrolysis of SREBP-2 peptide (% of control) (BTMD-SKI-1 [1]) | Ki (BTMD-SKI-1 [2]) [nM]
O=S(=O)(F)Cc1ccccc1 [PMSF, phenylmethylsulfonyl fluoride] | 85 % of control | –
PS1 (SKI-1 prosegment construct extending to Leu169, hexa-His tag) (other, Bacterial recombinant (pET24b, BamHI/XhoI, E. coli BL21); The start at aa 18 follows the sense primer and claim 5; Any vector-derived residues are not described; also called PSI) KKHLGDRLEKKSFEKAPCPGCSHLTLKVEFSSTVVEYEYIVAFNGYFTAKARNSFISSALKSSEVDNWRIIPRNNPSSDYPSDFEVIQIKEKQKAGLLTLEDHPNIKRVTPQRKVFRSLKYAESDPTVPCNETRWSQKWQSSRPLRRASLSLHHHHHH | – | 182
